The numbers were not newly measured in patent US10472677B2, “Translational dysfunction based therapeutics” (Translational Therapeutics, Inc., priority 2005, dated 2019), which cites them from elsewhere.

Protein sequences, listed by entry. Tags and fused reporters are not part of them.
UniProt P06730, whole entry, species assumed: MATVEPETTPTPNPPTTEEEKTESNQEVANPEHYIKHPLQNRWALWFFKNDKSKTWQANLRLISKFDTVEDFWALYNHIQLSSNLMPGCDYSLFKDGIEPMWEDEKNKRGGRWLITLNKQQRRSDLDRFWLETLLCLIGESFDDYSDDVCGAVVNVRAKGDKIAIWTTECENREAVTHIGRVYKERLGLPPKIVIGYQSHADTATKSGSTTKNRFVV

pKd: −log10 of the molar value.

The target of this data set is eIF4E (Homo sapiens, UniProt P06730). Particulars: read-out: Kd of eIF4E for cap; cited from earlier work.

In the case of `Cn1c[n+]([C@@H]2O[C@H](COP(=O)(O)OP(=O)([O-])OP(=O)(O)OC[C@H]3O[C@@H](n4cnc5c(=O)[nH]c(N)nc54)[C@H](O)[C@@H]3O)[C@@H](O)[C@H]2O)c2nc(N)[nH]c(=O)c21` [m7GpppG], the pKd is approximately 6.70.

One may read the pKd as −log10 of the Kd, conventionally taken in molar units.
